Laboratory results taken from US20230295106A1 (priority 2019, published 2023).

By UniProt entry, the sequences of proteins in these tests, tags left out. Residues count along the entry.
UniProt P28335, whole entry I156V/N158S/I160V: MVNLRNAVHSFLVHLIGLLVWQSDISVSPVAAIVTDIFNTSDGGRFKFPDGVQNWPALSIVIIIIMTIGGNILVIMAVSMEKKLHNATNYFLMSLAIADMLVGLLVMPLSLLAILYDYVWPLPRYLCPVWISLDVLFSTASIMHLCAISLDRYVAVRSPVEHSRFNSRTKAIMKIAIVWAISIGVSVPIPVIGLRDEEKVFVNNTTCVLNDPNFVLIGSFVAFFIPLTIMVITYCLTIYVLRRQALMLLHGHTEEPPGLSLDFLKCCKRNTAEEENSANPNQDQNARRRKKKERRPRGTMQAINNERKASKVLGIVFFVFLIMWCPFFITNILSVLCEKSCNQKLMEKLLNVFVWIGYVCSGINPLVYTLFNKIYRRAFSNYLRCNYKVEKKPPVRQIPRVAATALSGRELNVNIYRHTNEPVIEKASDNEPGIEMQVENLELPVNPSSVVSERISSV
UniProt P28335, 33-458 I156V/N158S/I160V limits assumed: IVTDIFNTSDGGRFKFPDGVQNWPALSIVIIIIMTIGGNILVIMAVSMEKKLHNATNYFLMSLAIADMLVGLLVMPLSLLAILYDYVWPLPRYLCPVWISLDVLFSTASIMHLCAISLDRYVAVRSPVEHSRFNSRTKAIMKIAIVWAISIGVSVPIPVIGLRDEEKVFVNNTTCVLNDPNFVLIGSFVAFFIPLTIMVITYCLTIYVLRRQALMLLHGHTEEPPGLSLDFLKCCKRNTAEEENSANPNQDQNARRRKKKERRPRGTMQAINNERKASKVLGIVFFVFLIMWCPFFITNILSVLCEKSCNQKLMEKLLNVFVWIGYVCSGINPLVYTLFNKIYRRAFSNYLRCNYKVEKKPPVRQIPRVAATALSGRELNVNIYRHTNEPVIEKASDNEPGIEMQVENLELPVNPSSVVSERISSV

Assays:
[1] = target: human recombinant 5-HT2C edited receptor (accession number AAF35842.1) (Homo sapiens, UniProt P28335, I156V/N158S/I160V); assay: Serotonin 5-HT2C in vitro cellular IPOne agonism assay (HTRF); conditions: read-out: 5-HT2C IPOne Agonism Activity; CHO-K1 cells, 60 min at 37° C.
[2] = target: 5-HT2C edited (accession number AAF35842.1) (Homo sapiens, UniProt P28335, I156V/I160V/N158S); assay: Serotonin 5-HT2C in vitro radioligand binding competition assay ([3H]-DOI); conditions: read-out: 5-HT2C Radioligand Binding Activity; competition with [3H]-DOI, membrane extracts

SMILES | EC50 [1] | IC50 [2]
CCN(CC)C(=O)C1C=C(c2c(OC)cccc2OC)CN(C)C1 (single isomer, unassigned) [Compound 3] | > 10 µM | > 10 µM
CCN(CC)C(=O)C1C=C(c2c(OC)cccc2OC)CN(C)C1 (single isomer, unassigned) [Compound 4] | 1 to 10 µM | > 10 µM
